Test: soluble on expression in E. coli; label from the status in PepcDB or PDB records

Sequence	soluble on expression in E. coli
GSHSLKYFHTSVSRPGRGEPRFISVGYVDDTQFVRFDNDAASPRMVPRAPWMEQEGSEYWDRETRSARDTAQIFRVNLRTLRGYYNQSEAGSHTLQWMHGCELGPDRRFLRGYEQFAYDGKDYLTLNEDLRSWTAVDTAAQISEQKSNDASEAEHQRAYLEDTCVEWLHKYLEKGKETLLHLEPPKTHVTHHPISDHEATLRCWALGFYPAEITLTWQQDGEGHTQDTELVETRPAGDGTFQKWAAVVVPSGEEQRYTCHVQHEGLPEPVTLRWKP	soluble
MDNKKRLAYAIIQFLHDQLRHGGLSSDAQESLEVAIQCLETAFGVTVEDSDLALPQTLPEIFEAAATGKEMPQDLRSPARTPPSEEDSAEAERLKTEGNEQMKVENFEAAVHFYGKAIELNPANAVYFCNRAAAYSKLGNYAGAVQDCERAICIDPAYSKAYGRMGLALSSLNKHVEAVAYYKKALELDPDNETYKSNLKIAELKLREAPSPTGGVGSFDIAGLLNNPGFMSMASNLMNNPQIQQLMSGMISGGNNPLGTPGTSPSQNDLASLIQAGQQFAQQMQQQNPELIEQLRSQIRSRTPSASNDDQQELEHHHHHH	soluble
MGHHHHHHSHMAEQLAWLRVLRLDKRSVVKHIGDLLQHRQSLVRSAFRDGTAEVETREKEPPGWGQGQGEGEVGNNSLGLPQGKRPASPALLLPPCMLKSPKRICPVPPVSTVTGDENISDSEIEQYLRTPQEVRDFQRAQAARQAATSVPNPP	not soluble

Source: the DeepSol protein solubility set
